This is an account of results in patent US20230114241A1, “METHODS OF TREATING EPILEPSY USING THE SAME” (Trevena, Inc., priority 2019, published 2023).

Protein sequences, listed by entry. Tags and fused reporters are not part of them. Lines headed by an entry give the natural chain unless they say otherwise; changes in a name come on top.
UniProt P21453, whole entry: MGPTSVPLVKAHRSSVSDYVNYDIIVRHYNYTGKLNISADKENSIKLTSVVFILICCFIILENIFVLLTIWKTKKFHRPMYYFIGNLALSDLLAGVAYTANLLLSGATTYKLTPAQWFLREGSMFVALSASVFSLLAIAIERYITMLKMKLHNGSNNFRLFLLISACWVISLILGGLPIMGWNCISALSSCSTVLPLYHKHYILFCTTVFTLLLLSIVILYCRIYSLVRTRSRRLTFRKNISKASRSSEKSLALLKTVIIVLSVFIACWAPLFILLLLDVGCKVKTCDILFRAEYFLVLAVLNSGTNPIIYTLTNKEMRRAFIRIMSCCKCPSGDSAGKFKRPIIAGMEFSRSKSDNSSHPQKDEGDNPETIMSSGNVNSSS
UniProt O95136: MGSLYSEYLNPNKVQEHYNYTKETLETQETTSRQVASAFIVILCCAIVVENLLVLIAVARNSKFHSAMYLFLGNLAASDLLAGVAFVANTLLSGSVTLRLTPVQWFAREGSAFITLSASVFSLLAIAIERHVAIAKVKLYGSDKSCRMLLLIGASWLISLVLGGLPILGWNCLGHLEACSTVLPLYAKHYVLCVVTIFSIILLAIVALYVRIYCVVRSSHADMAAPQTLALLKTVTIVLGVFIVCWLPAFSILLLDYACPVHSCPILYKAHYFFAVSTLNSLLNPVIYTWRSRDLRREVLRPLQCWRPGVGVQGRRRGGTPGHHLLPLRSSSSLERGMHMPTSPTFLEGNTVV
UniProt Q99500: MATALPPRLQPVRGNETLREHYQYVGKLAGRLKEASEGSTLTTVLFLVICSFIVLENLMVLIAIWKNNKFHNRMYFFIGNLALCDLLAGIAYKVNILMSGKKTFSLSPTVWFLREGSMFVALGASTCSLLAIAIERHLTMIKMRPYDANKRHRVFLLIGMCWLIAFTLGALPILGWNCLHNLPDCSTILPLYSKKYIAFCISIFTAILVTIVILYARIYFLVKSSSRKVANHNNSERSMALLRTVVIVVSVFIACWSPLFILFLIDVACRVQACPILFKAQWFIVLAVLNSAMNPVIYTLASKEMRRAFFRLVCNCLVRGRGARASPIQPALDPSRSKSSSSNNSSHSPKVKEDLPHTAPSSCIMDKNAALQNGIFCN
UniProt Q9H228: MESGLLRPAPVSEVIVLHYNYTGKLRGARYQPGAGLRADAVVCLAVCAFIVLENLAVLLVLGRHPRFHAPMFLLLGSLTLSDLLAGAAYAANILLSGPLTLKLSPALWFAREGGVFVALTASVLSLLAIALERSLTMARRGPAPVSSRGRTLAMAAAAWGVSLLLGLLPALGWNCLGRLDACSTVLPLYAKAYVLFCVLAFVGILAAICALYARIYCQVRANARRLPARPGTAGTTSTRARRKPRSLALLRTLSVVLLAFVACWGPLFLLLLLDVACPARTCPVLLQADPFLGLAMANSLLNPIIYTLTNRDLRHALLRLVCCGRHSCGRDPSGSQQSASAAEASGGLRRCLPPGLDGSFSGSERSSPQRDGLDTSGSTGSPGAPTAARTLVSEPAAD

What all share (assay type): cell-based
Experiment [1] has as its target human sphingosine-1-phosphate receptor 1 (S1P1) (Homo sapiens, UniProt P21453). Nature of the experiment: Inhibition of cAMP production (HTRF cAMP HiRange), S1P1 CHO-K1 cells.
For experiment [2], the target named is human sphingosine-1-phosphate receptor 2 (S1P2) (Homo sapiens, UniProt O95136). Briefly: Selectivity: inositol monophosphate production (IP-one), S1P2 CHO-K1 cells.
In experiment [3] the target is human sphingosine-1-phosphate receptor 3 (S1P3) (Homo sapiens, UniProt Q99500). Nature of the experiment: Selectivity: inhibition of cAMP production (HTRF), S1P3 CHO-K1 cells. As to conditions: efficacy normalized to maximal efficacy of fimgolimod.
In experiment [4] the target is sphingosine-1-phosphate receptor 5 (S1P5) (Homo sapiens, UniProt Q9H228). Briefly: Selectivity: inhibition of cAMP production (HTRF), S1P5 CHO-K1 cells. Particulars: efficacy normalized to maximal efficacy of fimgolimod.

Where only a bound is given, the exact number is not on record here.

Take `CC(C)Oc1ccc(-c2nc(-c3ccc4c(c3)nnn4C(C)C)no2)cc1C#N` [Compound 22, 2-isopropoxy-5-(3-(1-isopropyl-1H-benzo[d] [1,2,3]triazol-5-yl)-1,2,4-oxadiazol-5-yl)benzonitrile]: the EC50 in experiment [1] is under 316 nM. The “hS1P2 IP-one SPAN” value in experiment [2] is listed as under 50. Besides, the “hS1P3 cAMP SPAN” value in experiment [3] is given as under 50. In experiment [4], the “hS1P5 cAMP SPAN” value was under 50.
